Values of other authors, collected in patent publication US20160151380A1, “THERAPIES FOR DISEASES CAUSED BY ARTHROPOD-BORNE PARASITES” (THE REGENTS OF THE UNIVERSITY OF CALIFORNIA, priority 2013, published 2016).

Amino acid sequences for entries named in this document (tags omitted).
UniProt Q16539, whole entry: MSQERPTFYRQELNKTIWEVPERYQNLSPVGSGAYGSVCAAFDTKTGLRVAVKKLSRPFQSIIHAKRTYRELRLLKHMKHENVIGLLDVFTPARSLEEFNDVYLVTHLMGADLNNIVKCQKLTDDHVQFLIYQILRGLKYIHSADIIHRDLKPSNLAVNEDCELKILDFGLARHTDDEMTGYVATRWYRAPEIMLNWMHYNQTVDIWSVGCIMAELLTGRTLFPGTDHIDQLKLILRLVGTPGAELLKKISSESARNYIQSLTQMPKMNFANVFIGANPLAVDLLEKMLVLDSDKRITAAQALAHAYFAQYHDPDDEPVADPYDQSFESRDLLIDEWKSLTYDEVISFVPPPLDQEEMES
UniProt Q02156, whole entry: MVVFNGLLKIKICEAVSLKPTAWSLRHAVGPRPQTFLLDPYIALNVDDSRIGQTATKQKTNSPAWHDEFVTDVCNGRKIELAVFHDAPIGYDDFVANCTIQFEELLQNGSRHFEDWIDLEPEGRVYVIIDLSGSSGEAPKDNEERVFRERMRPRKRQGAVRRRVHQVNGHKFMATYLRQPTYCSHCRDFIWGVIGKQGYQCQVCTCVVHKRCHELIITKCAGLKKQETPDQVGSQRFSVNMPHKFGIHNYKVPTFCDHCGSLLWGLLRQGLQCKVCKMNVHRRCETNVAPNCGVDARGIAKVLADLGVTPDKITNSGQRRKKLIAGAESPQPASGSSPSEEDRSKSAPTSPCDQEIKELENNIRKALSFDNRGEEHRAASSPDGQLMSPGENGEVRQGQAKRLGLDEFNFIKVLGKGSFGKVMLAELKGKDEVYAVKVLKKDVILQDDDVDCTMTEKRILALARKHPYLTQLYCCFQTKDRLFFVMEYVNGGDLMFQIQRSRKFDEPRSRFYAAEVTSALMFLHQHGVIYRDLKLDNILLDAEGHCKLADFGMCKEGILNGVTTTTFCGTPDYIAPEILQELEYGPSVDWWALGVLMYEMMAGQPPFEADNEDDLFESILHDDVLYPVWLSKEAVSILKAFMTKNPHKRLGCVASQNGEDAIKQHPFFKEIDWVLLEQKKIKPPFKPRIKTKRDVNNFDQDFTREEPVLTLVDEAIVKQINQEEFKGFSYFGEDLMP

Assays:
MAPK14 p38 = MAPK14 p38 (Homo sapiens, UniProt Q16539); details: cited from earlier work
PKCepsilon = PKCepsilon (Homo sapiens, UniProt Q02156); details: cited from earlier work

For `Cc1ccc(NC(=O)c2cccc(C(F)(F)F)c2)cc1C(=O)Nc1cnc(Nc2ccc(N3CCN(C)CC3)cc2)nc1`, the IC50 (MAPK14 p38) is listed as 0.005 µM.
In the case of `CN1C[C@@H]2Cn3c(c(C4=C(c5cn(C)c6ccccc56)C(=O)NC4=O)c4ccccc43)C[C@H]2C1`, the IC50 (PKCepsilon) is listed as 0.048 µM.
